The numbers were not newly measured in patent US7368433B2, “Peptides and methods for the control of obesity” (University of Florida Research Foundation, Inc., priority 2002, dated 2008), which cites them from elsewhere.

Amino acid sequences for entries named in this document (tags omitted).
UniProt P32245, whole entry: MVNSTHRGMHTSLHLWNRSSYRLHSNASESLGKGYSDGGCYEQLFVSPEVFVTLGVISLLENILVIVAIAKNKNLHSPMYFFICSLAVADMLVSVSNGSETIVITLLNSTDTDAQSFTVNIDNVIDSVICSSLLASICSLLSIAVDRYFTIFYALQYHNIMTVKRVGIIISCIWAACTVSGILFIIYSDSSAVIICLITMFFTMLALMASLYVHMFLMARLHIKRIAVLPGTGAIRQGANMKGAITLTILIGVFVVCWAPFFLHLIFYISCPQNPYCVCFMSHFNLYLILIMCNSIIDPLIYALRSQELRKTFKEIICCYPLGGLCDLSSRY

SMILES strings stand for the structures.

For this data set, the target named is T1, human MC4R (Homo sapiens, UniProt P32245).
T1 construct: expressed in transfected cells; host or cells: HEK-293
The note with it: literature (Yang et al 2000; Danho et al); read-out: agonist activity at the human MC4 receptor; cited from earlier work.

`CC(=O)N[C@@H](Cc1cnc[nH]1)C(=O)N[C@H](Cc1ccccc1)C(=O)N[C@@H](CCCN=C(N)N)C(=O)N[C@@H](Cc1c[nH]c2ccccc12)C(N)=O` [JRH279-31, Ac-His-DPhe-Arg-Trp-NH2]: the EC50 is 8 to 10 nM.
